From patent US20260382616A1, “TREATMENT METHODS FOR SUBJECTS WITH NON-SMALL CELL LUNG CANCER HAVING AN ABERRATION IN EGFR” (published 2026)

Experiment: Phase 1/2a study, safety
[1] = 150 mg BID (N=11), regardless of grade

C=CC(=O)N[C@H]1C=C(C)c2c(-c3cnc4ccccc4c3)c3c(N)ncnc3n2C1
DLTs (100 mg dose level): 1/39
Pneumonitis, grade (100 mg patient, confounded by CPI and concurrent hydropneumothorax contralateral lung): grade 3
Pneumonitis, grade (100 mg patient, treated with steroids, resolution, continued therapy): grade 1 (to be upgraded as grade 2)
Treatment-related discontinuations (150 mg): two
Dose reductions (150 mg BID): 3/11
Grade 3 or 4 ALT/AST increase (150 mg BID): one
Pneumonitis possibly related (150 mg BID): one
TEAE ≥Grade 3 ALT increased (150 mg BID (N=11)): 1 (9.1) No (%)
TEAE ≥Grade 3 AST increased (150 mg BID (N=11)): 1 (9.1) No (%)
TEAE ≥Grade 3 anemia (150 mg BID (N=11)): 2 (18.2) No (%)
TEAE ≥Grade 3 diarrhea (150 mg BID (N=11)): 2 (18.2) No (%)
TEAE ≥Grade 3 disease progression (150 mg BID (N=11)): 0 No (%)
TEAE ≥Grade 3 dyspnea (150 mg BID (N=11)): 0 No (%)
TEAE ≥Grade 3 pneumonia (150 mg BID (N=11)): 0 No (%)
TRAE AST increased, number (150 mg BID (N=11), all grade): 2
TRAE AST increased, percent (150 mg BID (N=11), all grade): (18) %
TRAE alopecia, number (150 mg BID (N=11), all grade): 0
TRAE anemia, number (150 mg BID (N=11), all grade): 2
TRAE anemia, percent (150 mg BID (N=11), all grade): (18) %
TRAE decreased appetite, number (150 mg BID (N=11), all grade): 0
TRAE diarrhea, number (150 mg BID (N=11), all grade): 4
TRAE diarrhea, percent (150 mg BID (N=11), all grade): (36) %
TRAE dry eye, number (150 mg BID (N=11), all grade): 1
TRAE dry eye, percent (150 mg BID (N=11), all grade): (9) %
TRAE dry skin, number (150 mg BID (N=11), all grade): 0
TRAE fatigue, number (150 mg BID (N=11), all grade): 2
TRAE fatigue, percent (150 mg BID (N=11), all grade): (18) %
TRAE nausea, number (150 mg BID (N=11), all grade): 3
TRAE nausea, percent (150 mg BID (N=11), all grade): (27) %
TRAE paronychia, number (150 mg BID (N=11), all grade): 5
TRAE paronychia, percent (150 mg BID (N=11), all grade): (45) %
TRAE rash, number (150 mg BID (N=11), all grade): 7
TRAE rash, percent (150 mg BID (N=11), all grade): (64) %
TRAE stomatitis, number (150 mg BID (N=11), all grade): 3
TRAE stomatitis, percent (150 mg BID (N=11), all grade): (27) %
TRAE AST increased, number (150 mg BID (N=11), grade ≥3): 1
TRAE AST increased, percent (150 mg BID (N=11), grade ≥3): (9.1) %
TRAE alopecia, number (150 mg BID (N=11), grade ≥3): 0
TRAE anemia, number (150 mg BID (N=11), grade ≥3): 2
TRAE anemia, percent (150 mg BID (N=11), grade ≥3): (18.2) %
TRAE decreased appetite, number (150 mg BID (N=11), grade ≥3): 0
TRAE diarrhea, number (150 mg BID (N=11), grade ≥3): 2
TRAE diarrhea, percent (150 mg BID (N=11), grade ≥3): (18) %
TRAE dry eye, number (150 mg BID (N=11), grade ≥3): 0
TRAE dry skin, number (150 mg BID (N=11), grade ≥3): 0
TRAE fatigue, number (150 mg BID (N=11), grade ≥3): 0
TRAE nausea, number (150 mg BID (N=11), grade ≥3): 0
TRAE paronychia, number (150 mg BID (N=11), grade ≥3): 0
TRAE rash, number (150 mg BID (N=11), grade ≥3): 1
TRAE rash, percent (150 mg BID (N=11), grade ≥3): (9) %
TRAE stomatitis, number (150 mg BID (N=11), grade ≥3): 1
TRAE stomatitis, percent (150 mg BID (N=11), grade ≥3): (9) %
TEAE ALT increased, number (percent) [1]: 2 (18.2)
TEAE AST increased, number (percent) [1]: 2 (18.2)
TEAE alopecia, number (percent) [1]: 0
TEAE anemia, number (percent) [1]: 3 (27.3)
TEAE arthralgia, number (percent) [1]: 3 (27.3)
TEAE constipation, number (percent) [1]: 0
TEAE cough, number (percent) [1]: 2 (18.2)
TEAE decreased appetite, number (percent) [1]: 1 (9.1)
TEAE diarrhea, number (percent) [1]: 4 (36.4)
TEAE dizziness, number (percent) [1]: 2 (18.2)
TEAE dry eye, number (percent) [1]: 1 (9.1)
TEAE dry skin, number (percent) [1]: 1 (9.1)
TEAE dyspnea, number (percent) [1]: 1 (9.1)
TEAE edema peripheral, number (percent) [1]: 2 (18.2)
TEAE fatigue, number (percent) [1]: 3 (27.3)
TEAE headache, number (percent) [1]: 0
TEAE insomnia, number (percent) [1]: 1 (9.1)
TEAE nausea, number (percent) [1]: 4 (36.4)
TEAE paronychia, number (percent) [1]: 6 (54.5)
TEAE pyrexia, number (percent) [1]: 1 (9.1)
TEAE rash, number (percent) [1]: 8 (72.7)
TEAE stomatitis, number (percent) [1]: 3 (27.3)
TEAE vomiting, number (percent) [1]: 1 (9.1)
Dose reductions (150 mg BID, first 11 patients): three
Drug discontinuations (150 mg BID, first 11 patients): three
DLTs (150 mg dose level): 4/11
Grade 3 rash (150 mg dose level): one
Pneumonitis, grade (150 mg patient, concurrent Pneumocystis infection): grade 3
Grade 3 or 4 ALT/AST increase (<65 mg BID): one
